By UniProt entry, the sequences of proteins in these tests, tags left out.
UniProt Q01726, whole entry: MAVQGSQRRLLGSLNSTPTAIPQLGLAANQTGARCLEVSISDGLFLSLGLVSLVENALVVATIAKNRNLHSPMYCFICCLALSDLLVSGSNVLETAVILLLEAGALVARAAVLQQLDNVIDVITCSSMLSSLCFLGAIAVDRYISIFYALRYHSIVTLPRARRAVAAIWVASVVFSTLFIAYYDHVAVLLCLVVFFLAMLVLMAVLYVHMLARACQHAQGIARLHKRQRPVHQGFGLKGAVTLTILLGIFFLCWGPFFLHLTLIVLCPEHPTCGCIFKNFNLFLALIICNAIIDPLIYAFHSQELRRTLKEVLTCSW
UniProt P32245, whole entry: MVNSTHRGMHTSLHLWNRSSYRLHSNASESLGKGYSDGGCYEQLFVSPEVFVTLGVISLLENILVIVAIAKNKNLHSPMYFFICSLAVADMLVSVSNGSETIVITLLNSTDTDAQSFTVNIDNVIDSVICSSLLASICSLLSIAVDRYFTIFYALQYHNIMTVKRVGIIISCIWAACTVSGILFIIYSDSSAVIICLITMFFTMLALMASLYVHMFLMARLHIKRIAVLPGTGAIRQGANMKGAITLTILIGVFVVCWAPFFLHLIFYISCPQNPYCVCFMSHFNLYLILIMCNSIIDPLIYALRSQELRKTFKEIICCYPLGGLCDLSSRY
UniProt P41968, whole entry: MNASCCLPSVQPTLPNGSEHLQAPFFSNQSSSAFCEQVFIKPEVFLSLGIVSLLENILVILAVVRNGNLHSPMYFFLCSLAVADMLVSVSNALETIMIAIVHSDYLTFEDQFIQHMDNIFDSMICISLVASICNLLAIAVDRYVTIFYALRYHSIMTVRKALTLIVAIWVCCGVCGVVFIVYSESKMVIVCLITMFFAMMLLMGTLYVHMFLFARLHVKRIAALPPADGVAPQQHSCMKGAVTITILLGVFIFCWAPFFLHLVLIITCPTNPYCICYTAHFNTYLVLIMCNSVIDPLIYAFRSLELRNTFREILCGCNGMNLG

According to US20260382689A1, “METHODS OF PREVENTING AND/OR TREATING SIDE EFFECTS ASSOCIATED WITH ANTI-CANCER AGENTS USING NON-NATURALLY OCCURRING MELANOCORTIN ANALOGS WITH ANTI-GDF-15 ANTIBODIES” (published 2026):

Columns and labels:
[1] = target: T1, human MC1 receptor (MC1R) (Homo sapiens, UniProt Q01726); assay: cAMP HTRF functional assay, antagonist mode, MC1R (Example 2, Table 20); details: 100 nM
[2] = target: T1, human MC1 receptor (MC1R); assay: Radioligand binding competition, MC1R (Example 2, Tables 18 and 25, FIG. 9); details: Table 18, 100 nM
[3] = target: T1, human MC1 receptor (MC1R); assay: cAMP HTRF functional assay, agonist mode, MC1R (Example 2, Table 19); details: 100 nM
[4] = target: T2, human MC4 receptor (MC4R) (Homo sapiens, UniProt P32245); assay: Radioligand binding competition, MC4R (Example 2, Tables 23 and 25, FIG. 9); details: 100 nM
[5] = target: T3, human MC3 receptor (MC3R) (Homo sapiens, UniProt P41968); assay: cAMP HTRF functional assay, antagonist mode, MC3R (Example 2, Table 22); details: 100 nM
[6] = target: T2, human MC4 receptor (MC4R); assay: cAMP HTRF functional assay, antagonist mode, MC4R (Example 2, Table 24); details: 100 nM
[7] = target: T3, human MC3 receptor (MC3R); assay: Radioligand binding competition, MC3R (Example 2, Tables 21 and 25, FIG. 9); details: 100 nM
interleukin 1b (IL1b) = assay: IL1b mRNA expression in hypothalamus by qPCR (Example 4); details: cisplatin 5, 3, 3 mg/kg i.p. weekly, 21 days
[8] = Cisplatin chemotherapy-related adverse side effects, body composition and tissue weight in rats (Example 3); details: three cycles of cisplatin (5, 3, 3 mg/kg i.p. weekly) with IgG control antibody, 21 days
[9] = average, % inhibition of reference agonist at EC80
[10] = replicate 1, % inhibition of reference agonist at EC80
[11] = replicate 2, % inhibition of reference agonist at EC80
[12] = average, % residual binding of the radioligand
[13] = replicate 1, % residual binding of the radioligand
[14] = replicate 2, % residual binding of the radioligand

% Inhibition Average [1, 9]: 3.93% | % Inhibition 1 [1, 10]: 11.58% | % Inhibition 2 [1, 11]: −3.72% | % Binding Average ([2]; average, residual binding of radioligand): 111.23% | % Binding 1 ([2]; replicate 1, residual binding of radioligand): 110.76% | % Binding 2 ([2]; replicate 2, residual binding of radioligand): 111.71% | % Activation Average ([3]; average, % of reference agonist activity at EC100): 7.27% | % Activation 1 ([3]; replicate 1, % of reference agonist activity at EC100): 3.57% | % Activation 2 ([3]; replicate 2, % of reference agonist activity at EC100): 10.97% | % Binding Average [4, 12]: 3.45% | % Binding 1 [4, 13]: 2.88% | % Binding 2 [4, 14]: 4.02% | % Inhibition Average [5, 9]: 16.82% | % Inhibition 1 [5, 10]: 22.22% | % Inhibition 2 [5, 11]: 11.43% | % Inhibition Average [6, 9]: 111.41% | % Inhibition 1 [6, 10]: 101.34% | % Inhibition 2 [6, 11]: 121.48% | % Binding Average [7, 12]: 93.02% | % Binding 1 [7, 13]: 89.69% | % Binding 2 [7, 14]: 96.36%
Molecule: COc1cc([C@@H](C)C(=O)N2CC[C@@]3(CCc4cc(-c5ncccn5)c(C)nc4N3)C2)c(F)cn1

Molecule: cisplatin
mRNA expression of IL1b (interleukin 1b (IL1b)): reduced expression | adverse side effects [8]: persistent adverse side effects, including anorexia, weight loss, fatigue, fat mass and lean mass loss, muscle wasting, and leukopenia

One block for each molecule: values may come before it.
